# In patent publication US5614548A, “Quaternary amine containing ether or ester lipid derivatives and therapeutic compositions” (priority 1994, dated 1997):
# System: CEM-SS cells
substance,measurement,value
DEAE-Dextran,toxicity to CEM-SS cell growth,toxic to CEM-SS cell growth
